Molecular target: stromelysin catalytic domain (SCD) (Homo sapiens, UniProt P08254)
Experiment: Affinity (Ki) for SCD previously determined by another method
Format: binding
Settings: result in words

By UniProt entry, the sequences of proteins in these tests, tags left out. Residues count along the entry.
UniProt P08254, 100-273: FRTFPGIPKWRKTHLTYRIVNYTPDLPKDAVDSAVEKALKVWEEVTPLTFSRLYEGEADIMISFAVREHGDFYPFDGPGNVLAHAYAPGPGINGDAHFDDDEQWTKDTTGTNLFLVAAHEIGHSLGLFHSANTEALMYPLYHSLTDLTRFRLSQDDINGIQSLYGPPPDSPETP

O=C(Nc1ccccc1)c1ccccc1 [N-phenylbenzamide]
Affinity (Ki): Non-

Source: US20030148269A1, “Centrifugally-enhanced method of determining ligand/target affinity” (priority 1999, published 2003)
